Data from patent publication US4188321A, “25-Desacetyl rifamycins” (Gruppo Lepetit S.p.A., priority 1966, dated 1980).

Assay: in vivo
Settings: mouse, iv

Compound: CCN(CC)C(=O)COc1cc2c(O)c3c(O)c(C)c4c(c13)C(=O)C(C)(OC=CC(OC)C(C)C(OC(C)=O)C(C)C(O)C(C)C(O)C(C)C=CC=C(C)C(=O)N2)O4 (stereo not shown) [rifamycin B diethylamide, reference compound]
- LD50: 340 mg/kg
